# Reference: US20240199677A1, “GLYCOSYLTRANSFERASE INHIBITORS” (CALIFORNIA INSTITUTE OF TECHNOLOGY, priority 2018, published 2024)
# Protein sequences, listed by entry. Tags and fused reporters are not part of them. Lines headed by an entry give the natural chain unless they say otherwise; changes in a name come on top.
# UniProt A0R211: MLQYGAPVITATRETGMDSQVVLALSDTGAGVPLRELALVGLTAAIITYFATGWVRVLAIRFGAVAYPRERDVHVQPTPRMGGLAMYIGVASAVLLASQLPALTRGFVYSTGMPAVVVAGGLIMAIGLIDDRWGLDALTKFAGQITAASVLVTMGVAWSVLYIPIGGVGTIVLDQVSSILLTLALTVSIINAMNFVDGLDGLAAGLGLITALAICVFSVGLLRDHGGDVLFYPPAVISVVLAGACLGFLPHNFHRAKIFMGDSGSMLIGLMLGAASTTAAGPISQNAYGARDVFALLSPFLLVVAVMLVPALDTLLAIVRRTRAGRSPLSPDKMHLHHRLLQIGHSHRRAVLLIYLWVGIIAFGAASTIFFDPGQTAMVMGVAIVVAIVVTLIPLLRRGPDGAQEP
# Biological target: M. smegmatis WecA (Mycolicibacterium smegmatis (strain ATCC 700084 / mc(2)155) (Mycobacterium smegmatis), UniProt A0R211)
# Experiment: biochemical
smiles,measurement,value
NC[C@H]1O[C@@H](O[C@H]([C@H]2O[C@@H](n3ccc(=O)[nH]c3=O)[C@H](O)[C@@H]2O)[C@H](NCCCC(=O)NCc2ccc(N3CCC(Oc4ccc(C(F)(F)F)cc4)CC3)cc2)C(N)=O)[C@H](O)[C@@H]1O [Compound 11],IC50,250 nM
